Reference: ChEMBL document CHEMBL1145173, “Stereoselective synthesis of [L-Arg-L/D-3-(2-naphthyl)alanine]-type (E)-alkene dipeptide isosteres and its application to the synthesis and biological evaluation of pseudopeptide analogues of the CXCR4 antagonist FC131” (J Med Chem, 2005)

The chains behind the UniProt entries cited, without tags or fusion partners.
UniProt P61073, whole entry: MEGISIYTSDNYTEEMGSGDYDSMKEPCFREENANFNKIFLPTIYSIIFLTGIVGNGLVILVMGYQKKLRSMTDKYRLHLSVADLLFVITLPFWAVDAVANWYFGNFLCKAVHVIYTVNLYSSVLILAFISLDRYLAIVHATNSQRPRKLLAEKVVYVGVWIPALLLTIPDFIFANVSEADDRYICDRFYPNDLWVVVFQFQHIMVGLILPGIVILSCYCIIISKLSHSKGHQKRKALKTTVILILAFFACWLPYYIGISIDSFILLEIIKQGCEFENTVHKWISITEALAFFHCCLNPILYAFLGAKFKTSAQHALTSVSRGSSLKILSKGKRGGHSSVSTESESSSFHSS

Biological target: C-X-C chemokine receptor type 4 (Homo sapiens, UniProt P61073)
Assay: Inhibition of [125I]SDF-1 binding to C-X-C chemokine receptor type 4 expressed in CHO cells
Format: cell-based
In short: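 Stably transfected CXCR4 CHO cells, trypsin/EDTA harvested, recovered 4–5 h in MEM-α growth medium, washed in cold PBS with 2 mg/mL BSA; 1×10^7 cells/mL incubated with 0.1 nM [125I]-SDF-1 plus compound 2 h on ice with agitation; bound/free split by oil-cushion centrifugation, gamma counting; IC₅₀, mean of ≥3 experiments.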

IC50: 190 nM
Compound: N=C(N)NCCC[C@@H]1NC(=O)[C@@H](Cc2ccc(O)cc2)NC(=O)CNC(=O)[C@@H](Cc2ccc3ccccc3c2)NC(=O)[C@H](CCCN=C(N)N)NC1=O
